Test results reported in patent US7060449.

B1: rat galanin, P10683 (peptide)
chain: GWTLNSAGYLLGPHAIDNHRSFSDKHGLT
B2: human galanin, P22466 (peptide)
chain: GWTLNSAGYLLGPHAVGNHRSFSDKNGLTS
B3: galanin(1-16), P07480 (peptide)
chain: GWTLNSAGYLLGPHAI

Tests used:
Details in all cases: modification not given
rat GALR2 (rat) [1] = target: T1, rat GALR2 (rat); test: competition, CHO
T1 chain: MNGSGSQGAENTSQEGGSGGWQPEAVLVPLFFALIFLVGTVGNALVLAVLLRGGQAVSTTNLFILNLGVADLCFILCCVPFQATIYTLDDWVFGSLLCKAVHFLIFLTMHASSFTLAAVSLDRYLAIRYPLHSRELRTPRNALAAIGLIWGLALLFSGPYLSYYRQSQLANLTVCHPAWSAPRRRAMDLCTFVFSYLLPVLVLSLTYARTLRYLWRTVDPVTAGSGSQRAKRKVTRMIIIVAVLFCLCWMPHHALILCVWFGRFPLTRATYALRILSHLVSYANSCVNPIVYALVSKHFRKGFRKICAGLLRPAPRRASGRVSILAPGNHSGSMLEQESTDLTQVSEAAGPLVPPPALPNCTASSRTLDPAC

rat GALR2 (rat) [2] = target: T1, rat GALR2 (rat); test: competition, COS-7
human GALR2 (human) = target: T2, human GALR2 (human); test: competition
T2 chain: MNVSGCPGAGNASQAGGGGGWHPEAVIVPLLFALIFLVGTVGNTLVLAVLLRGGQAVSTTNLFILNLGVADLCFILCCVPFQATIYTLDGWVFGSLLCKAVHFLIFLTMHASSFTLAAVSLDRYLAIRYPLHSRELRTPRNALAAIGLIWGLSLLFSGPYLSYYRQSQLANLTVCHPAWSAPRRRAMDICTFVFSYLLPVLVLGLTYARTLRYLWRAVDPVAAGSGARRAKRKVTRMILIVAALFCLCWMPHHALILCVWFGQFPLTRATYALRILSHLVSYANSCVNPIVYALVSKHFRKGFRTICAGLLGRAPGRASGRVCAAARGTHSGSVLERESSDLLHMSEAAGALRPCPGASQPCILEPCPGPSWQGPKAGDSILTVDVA

Binder | Ki (rat GALR2 (rat) [1]) [nM] | Ki (rat GALR2 (rat) [2]) [nM] | Ki (human GALR2 (human)) [nM]
B1 | 0.52 | 0.52 | 
B2 | 1.2 |  | 
B3 |  |  | 15
